Test results taken from PubChem BioAssay AID743398 (Broad Institute, 2014).
The list shows a part of the results, in another mix than the full data. Some results for these compounds are left out of this collection, so the calls shown say nothing about other tests. Activity calls are given as the source filed them. Cut-off read from the data, not from the text of the source: active = activation above about 30% (passing the limit was not always enough); inconclusive = no clear call, values can overlap the other calls.

Assay: Wnt/beta-catenin pathway activators, primary screen, cell-based, plate reader, single point (AID 743398);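 note: 0% = neutral control wells and 100% = positive control wells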
Settings: Wnt/beta-catenin reporter cell assay, activator, at 9.35 µM, hits give high values
For `C=CCN1CCN(CCOC(=O)C(O)(c2ccccc2)c2ccccc2)CC1`, the activation was inactive: -0.404%.
In the case of `O=C(NCC1(N2CCCCC2)CCCCC1)c1cc(F)c(F)cc1Cl`, the activation is reported as inactive: -0.34%.
With `Cc1cc(C(=O)NCC2(N3CCCCC3)CCCCC2)ccc1[N+](=O)[O-]` the activation was inactive: -1.8%.
In the case of `CCN1CCCC(OC(=O)C2(O)c3ccccc3C=Cc3ccccc32)C1` (centres undefined), the activation is reported as inactive: 0.544%.
With `O=C(NCC1(N2CCCCC2)CCCCC1)c1cccc(Br)c1` the activation was inactive: 5.05%.
With `COc1ccc(C(=O)NCC2(N(C)C)CCCCC2)cc1` the activation was inactive: -1.86%.
With `Cc1ccccc1C(=O)NCC1(N2CCCCC2)CCCCC1` the activation was inactive: -0.569%.
With `CN(C)C1CCCC1OC(=O)C(O)(c1ccccc1)c1ccccc1` (centres undefined) the activation was inactive: -0.469%.
For `CN(C)c1ccc(C(=O)NCC2(N(C)C)CCCCC2)cc1`, the activation was inactive: 4.6%.
With `CC(C)N1C(=O)CC2(CCN(CCOC(=O)C(O)(c3ccccc3)c3ccccc3)CC2)C1=O` the activation was inactive: -2.58%.
For `CCN(CC)CC(C)C(C)OC(=O)C(O)(c1ccccc1)c1ccccc1` (centres undefined), the activation was inactive: 2.57%.
For `COc1cc(SC)ccc1C(=O)NCC1(N(C)C)CCCCC1`, the activation was inactive: 0.318%.
With `Cc1ccc(C(=O)NCC2(N3CCCCC3)CCCCC2)cc1` the activation was inactive: -2.13%.
With `O=C(NCC1(N2CCCCC2)CCCCC1)c1cc([N+](=O)[O-])ccc1Cl` the activation was inactive: -1.97%.
For `CN1[C@@H]2CC[C@H]1CC(OC(=O)C(O)(c1ccccc1)c1ccccc1)C2` (some centres undefined), the activation was inactive: -0.648%.
For `COc1ccc(Br)c(C(=O)NCC2(N3CCCCC3)CCCCC2)c1`, the activation was inactive: 25.7%.
With `C=C(C)C#CC(O)(C(=O)OC1CCN(C)CC1)c1ccccc1` (centres undefined) the activation was inactive: -6.04%.
For `CC(C)Oc1ccc(C(=O)NCC2(N(C)C)CCCCC2)cc1`, the activation was inactive: 1.41%.
In the case of `O=C(OCCN1CCCC1)C(O)(c1ccccc1)c1ccccc1`, the activation is reported as inactive: 4.9%.
For `COc1cccc(C(=O)NCC2(N3CCCCC3)CCCCC2)c1`, the activation was inactive: 1.05%.
In the case of `COc1ccc(Cl)cc1C(=O)NCC1(N(C)C)CCCCC1`, the activation is reported as inactive: 0.847%.
For `O=C(NCC1(N2CCCCC2)CCCCC1)c1cccc(Cl)c1`, the activation was inactive: 0.609%.
In the case of `CN(C)C1(CNC(=O)c2ccc(Br)cc2)CCCCC1`, the activation is reported as inactive: 0.349%.
In the case of `COc1cc(C(=O)NCC2(N(C)C)CCCCC2)c([N+](=O)[O-])cc1OC`, the activation is reported as inactive: 1.08%.
